{"source": "patent US11370781B2", "about": "“Combination therapy for treating cancer” (Epizyme, Inc., priority 2012, dated 2022)", "test_system": "SUDHL10 human lymphoma cells", "method": "The animals were fed ad libitum water (reverse osmosis 1 ppm Cl) and NIH 31 Modified and Irradiated Lab Diet® consisting of 18.0% crude protein, 5.0% crude fat, and 5.0% crude fiber. The mice were housed on irradiated Enrich-o'cobs™ bedding in static microisolators on a 12-hour light cycle at 20-22° C. (68-72° F.) and 40-60% humidity. All procedures comply with the recommendations of the Guide for Care and Use of Laboratory Animals with respect to restraint, husbandry, surgical procedures, feed and fluid regulation, and veterinary care.\nHuman lymphoma cell lines were harvested during mid-log phase growth, and resuspended in PBS with 50% Matrigel™ (BD Biosciences). Each mouse received 1×10^7 cells (0.2 mL cell suspension) subcutaneously in the right flank. Tumors were calipered in two dimensions to monitor growth as the mean volume approached the desired 80-120 mm^3 range. Tumor size, in mm^3, was calculated from: […]\nCompounds of Formula (IIa) were stored at room temperature and protected from light. On each treatment day, a fresh compound formulations were prepared by suspending the powders in 0.5% sodium carboxymethylcellulose (NaCMC) and 0.1% Tween® 80 in deionized water. […] Formulations were stored away from light at 4° C. prior to administration.\nSeveral chemotherapeutica were used in parallel to Epizyme compounds. Cyclophosphamide (Baxter, Lot #016591), was reconstituted to 20 mg/mL with sterile saline and stored at 4° C. A fresh dosing solution was prepared for each dose by dilution with saline. Doxorubicin (Doxorubicin Meiji®, Meiji Pharmaceutical Co. Ltd., 1 mg/mL) was stored at 4° C. and diluted with saline on each treatment day. Vincristine (Hospira, Inc., 1 mg/mL) was diluted with saline on each treatment day. Prednisone (Boehringer Ingelheim GmbH, 1 mg/mL) was diluted with PBS at the beginning of each 5-day dosing cycle.\nMice were treated at compound doses ranging from 75-600 mg/kg and at TID (3 times a day every 8 h), BID (twice a day every 12 h) or QD (once a day) schedules for various amount of days by oral gavage or injections via the intravenous, intraperitoneal or subcutaneous routes. Each dose was delivered in a volume of 0.2 mL/20 g mouse (10 mL/kg), and adjusted for the last recorded weight of individual animals. The maximal treatment length was 28 days.\nTreatment efficacy was determined on the last treatment day. MTV(n), the median tumor volume for the number of animals, n, evaluable on the last day, was determined for each group. Percent tumor growth inhibition (% TGI) can be defined several ways. First, the difference between the MTV(n) of the designated control group and the MTV(n) of the drug-treated group is expressed as a percentage of the MTV(n) of the control group: […]\nAnother way of calculating % TGI is taking the change of the tumor size from day 1 to day n into account with n being the last treatment day.", "note": "Read-outs that look alike come from different tables or passages of the source.", "data": [{"smiles": "CCN(c1cc(-c2ccc(CN3CCOCC3)cc2)cc(C(=O)NCc2c(C)cc(C)[nH]c2=O)c1C)C1CCOCC1", "note": "[Compound 44, N-((4,6-dimethyl-2-oxo-1,2-dihydropyridin-3-yl)methyl)-5-(ethyl (tetrahydro-2H-pyran-4-yl)amino)-4-methyl-4′-(morpholinomethyl)-[1,1′-biphenyl]-3-carboxamide]", "values": [{"measurement": "mice without tumor on day 29", "setting": "Compound 44 250 mg/kg group", "result": "1/16"}, {"measurement": "mice without tumor on day 29", "setting": "Compound 44 500 mg/kg group", "result": "2/15"}, {"measurement": "tumor weight on day 28 compared to control mice (vehicle)", "setting": "Compound 44 single agent at 125 mg/kg", "result": "significantly smaller"}, {"measurement": "survival of mice (Kaplan-Meier) compared to control or COP only", "setting": "Compound 44 single agent at 125 mg/kg, 250 mg/kg and 500 mg/kg", "result": "increased the survival"}, {"measurement": "tumor size at day 28, tumor growth delay cohort", "setting": "Compound 44 single agent, 250 mg/kg and 500 mg/kg", "result": "small tumors"}, {"measurement": "tumor growth compared to vehicle treated mice", "setting": "Compound 44 single agent, 250 mg/kg and 500 mg/kg BID, p<0.001", "result": "statistically significant tumor growth inhibition"}, {"measurement": "mice euthanized due to poor body condition", "setting": "mouse, in vivo, 500 mg/kg", "result": "One mouse"}]}]}
